The values below come from patent publication US11564923B2, “Compounds and pharmaceutical compositions thereof for the treatment of inflammatory disorders” (Galapagos NV, priority 2017, dated 2023).

The chains behind the UniProt entries cited, without tags or fusion partners. Residues count along the entry.
UniProt O60674, 808-1132 limits assumed: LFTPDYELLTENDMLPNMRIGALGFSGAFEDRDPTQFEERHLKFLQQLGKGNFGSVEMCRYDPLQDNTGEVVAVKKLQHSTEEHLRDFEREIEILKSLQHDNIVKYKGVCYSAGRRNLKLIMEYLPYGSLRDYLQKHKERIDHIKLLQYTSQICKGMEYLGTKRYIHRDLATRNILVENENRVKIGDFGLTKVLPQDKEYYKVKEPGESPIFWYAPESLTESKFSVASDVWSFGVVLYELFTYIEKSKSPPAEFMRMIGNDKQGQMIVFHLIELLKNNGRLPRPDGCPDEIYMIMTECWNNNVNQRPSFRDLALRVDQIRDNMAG
UniProt P29597, 871-1187 limits assumed: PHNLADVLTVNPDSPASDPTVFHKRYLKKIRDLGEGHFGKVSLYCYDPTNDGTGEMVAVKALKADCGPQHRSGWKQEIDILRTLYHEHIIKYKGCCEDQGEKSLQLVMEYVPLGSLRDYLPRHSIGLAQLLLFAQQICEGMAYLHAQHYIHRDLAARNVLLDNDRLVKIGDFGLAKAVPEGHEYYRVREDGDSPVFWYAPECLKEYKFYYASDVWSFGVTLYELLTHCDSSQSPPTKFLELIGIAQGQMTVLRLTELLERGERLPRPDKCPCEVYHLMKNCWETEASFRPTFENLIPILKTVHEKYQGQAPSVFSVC

The target of assay [1] is Recombinant human JAK2 (catalytic domain, amino acids 808-1132) (Homo sapiens, UniProt O60674). Briefly: JAK2 inhibition assay. Format: biochemical. Particulars: read-out: JAK2 potency IC50.
Assay [2] addresses Recombinant human TYK2 catalytic domain (amino acids 871-1187) (Homo sapiens, UniProt P29597). Description: TYK2 radioactive assay polyGT substrate. Format: biochemical. Particulars: read-out: TYK2 IC50.

Consider `Cc1cc(C#N)ncc1Oc1cc(Nc2ccc(C(=O)N3CCC4(CCOC4)C3)cn2)c2ncn(C)c2n1` (centres unmarked), for which the figures for the half-inhibitory concentration (IC50) in assay [1] and in assay [2] were 20 nM and 3 nM, respectively.

Broadly, the IC50 is the midpoint of a concentration-inhibition curve.
